Data as given in patent publication US20250313563A1, “GLYCOGEN SYNTHASE KINASE 3 INHIBITORS AND USES THEREOF” (The Broad Institute, Inc., priority 2022, published 2025).
Like-named read-outs stand apart in the source and are kept apart here.

Amino acid sequences for entries named in this document (tags omitted).
UniProt P49841, whole entry: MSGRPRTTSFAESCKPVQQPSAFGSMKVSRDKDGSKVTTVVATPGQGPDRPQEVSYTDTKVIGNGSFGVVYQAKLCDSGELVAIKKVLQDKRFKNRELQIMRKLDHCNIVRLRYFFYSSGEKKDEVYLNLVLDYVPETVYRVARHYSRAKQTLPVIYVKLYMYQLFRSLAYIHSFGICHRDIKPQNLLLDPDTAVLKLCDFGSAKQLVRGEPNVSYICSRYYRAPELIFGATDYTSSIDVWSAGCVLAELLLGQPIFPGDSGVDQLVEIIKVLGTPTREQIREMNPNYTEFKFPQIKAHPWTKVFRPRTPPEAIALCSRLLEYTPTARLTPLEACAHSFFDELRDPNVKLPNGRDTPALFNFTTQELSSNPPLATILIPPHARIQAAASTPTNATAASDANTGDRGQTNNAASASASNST
UniProt P49840, whole entry: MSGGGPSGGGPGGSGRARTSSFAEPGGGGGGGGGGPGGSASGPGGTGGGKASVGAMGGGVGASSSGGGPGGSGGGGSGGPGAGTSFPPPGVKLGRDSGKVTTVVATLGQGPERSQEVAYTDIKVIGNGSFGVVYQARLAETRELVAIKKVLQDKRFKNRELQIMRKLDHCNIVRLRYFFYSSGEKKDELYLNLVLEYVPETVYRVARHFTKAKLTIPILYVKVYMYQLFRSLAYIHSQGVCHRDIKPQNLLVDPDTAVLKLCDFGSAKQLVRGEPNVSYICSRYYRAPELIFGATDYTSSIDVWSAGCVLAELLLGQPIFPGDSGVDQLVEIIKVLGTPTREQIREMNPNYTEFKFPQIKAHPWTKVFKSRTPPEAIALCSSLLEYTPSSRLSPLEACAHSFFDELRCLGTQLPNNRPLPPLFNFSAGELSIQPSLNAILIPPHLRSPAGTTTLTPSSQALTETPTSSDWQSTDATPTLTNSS

What was measured:
[1] = molecular target: GSK3b (GST-full length GSK3b) (Homo sapiens (Human), UniProt P49841); assay: GSK3b TR-FRET kinase assay; assay type: biochemical
[2] = molecular target: GSK3α (GST-full length GSK3α) (Homo sapiens (Human), UniProt P49840); assay: GSK3α TR-FRET kinase assay; assay type: biochemical
[3] = read-out: GSK3-B TR-FRET BIOCHEMICAL (TR-FRET), GMean, IC50, 1 nM GSK3b, 2 μM ATP, 30 minute preincubation, geometric mean
[4] = read-out: GSK3-A TR-FRET BIOCHEMICAL (TR-FRET), GMean, IC50, 1 nM GSK3α, 4 μM ATP, 30 minute preincubation, geometric mean
[5] = read-out: GSK3-B (TR-FRET 1 mM ATP), GMean, IC50, 1 mM ATP, geometric mean
[6] = read-out: GSK3-B TR-FRET BIOCHEMICAL (TR-FRET);, 1 nM GSK3b, 2 μM ATP, 30 minute preincubation, Table 16
[7] = read-out: GSK3-A (TR-FRET 1 mM ATP), GMean, IC50, 1 mM ATP, geometric mean
[8] = read-out: GSK3-A TR-FRET BIOCHEMICAL (TR-FRET);, 1 nM GSK3α, 4 μM ATP, 30 minute preincubation, Table 16
[9] = read-out: GSK3-B TR-FRET BIOCHEMICAL (TR-FRET), IC50, 1 nM GSK3b, 2 μM ATP, 30 minute preincubation (Table 16)
[10] = read-out: GSK3-A TR-FRET BIOCHEMICAL (TR-FRET), IC50, 1 nM GSK3α, 4 μM ATP, 30 minute preincubation (Table 16)
[11] = read-out: GSK3-B TR-FRET BIOCHEMICAL (TR-FRET), IC50, 1 nM GSK3b, 2 μM ATP, 30 minute preincubation
[12] = read-out: GSK3-A TR-FRET BIOCHEMICAL (TR-FRET), IC50, 1 nM GSK3α, 4 μM ATP, 30 minute preincubation

SMILES | IC50 [1, 3] [nM] | IC50 [2, 4] [nM] | IC50 [1, 5] [nM] | IC50 [2, 7] [nM] | also measured
CC[C@]1(c2cccc(-c3ccncc3C)c2)C2=C(C[C@]3(CCOC3)NC2=O)Nc2n[nH]cc21 | < 100 | < 100 | – | – | –
CC[C@@]1(c2cccc(-c3cc(C)nn3C)c2)C2=C(CC(C)(C)CC2=O)Nc2n[nH]c(C(F)(F)F)c21 | – | – | 100 to 1000 | < 100 | IC50 [1, 6]: < 100 nM; IC50 [2, 8]: < 100 nM
CC[C@]1(c2cccc(-c3cnn(CCc4ccccc4)c3)c2)C2=C(CC(C)(C)NC2=O)Nc2n[nH]cc21 | – | – | – | – | IC50 [1, 9]: 100 to 1000 nM; IC50 [2, 10]: < 100 nM
Cn1ccc(S(=O)(=O)N2CCC[C@@]3(CC2)C2=C(CC(C)(C)CC2=O)Nc2n[nH]cc23)n1 | – | – | – | – | IC50 [1, 6]: < 100 nM; IC50 [2, 8]: < 100 nM
CCC1(c2cccc(-c3ccncc3F)c2)C2=C(CC(C)(C)NC2=O)Nc2n[nH]c(C)c21 (centres unmarked) | – | – | – | – | IC50 [1, 11]: < 100 nM; IC50 [2, 12]: < 100 nM
CC[C@@]1(c2cccc(-c3cnn(C)c3C)c2)C2=C(CC(C)(C)NC2=O)Nc2n[nH]c(C)c21 | – | – | – | – | IC50 [1, 11]: < 100 nM; IC50 [2, 12]: < 100 nM
CC(C)(C)Cc1[nH]nc2c1[C@](C)(c1ccccc1)C1=C(CC(C)(C)NC1=O)N2 | – | – | 1000 to 5000 | > 5000 | –
CC[C@]1(c2cccc(-c3cnn(Cc4cccc(F)c4F)c3)c2)C2=C(CC(C)(C)NC2=O)Nc2n[nH]cc21 | – | – | – | – | IC50 [1, 9]: 100 to 1000 nM; IC50 [2, 10]: < 100 nM
CCC1(c2cccc(C(F)F)c2)C2=C(CC(C)(C)NC2=O)Nc2n[nH]c(C)c21 (centres unmarked) | < 100 | < 100 | – | – | –
CCC1(c2cccc(N3CCc4ccncc4C3)c2)C2=C(CC(C)(C)CC2=O)Nc2n[nH]cc21 (centres unmarked) | – | – | – | – | IC50 [1, 9]: > 5000 nM; IC50 [2, 10]: 1000 to 5000 nM
CCC1(c2cccc(C(F)(F)F)c2)C2=C(CC(C)(C)CC2=O)Nc2n[nH]c(C(F)(F)F)c21 (centres unmarked) | 1000 to 5000 | 100 to 1000 | – | – | –
CC[C@@]1(c2cccc(C(F)(F)F)c2)C2=C(CCN(c3cccnc3)C2=O)Nc2n[nH]cc21 | 100 to 1000 | < 100 | > 5000 | 100 to 1000 | –
CC(C)(C)Cc1[nH]nc2c1C1(CCc3cccc(F)c31)C1=C(CC(C)(C)CC1=O)N2 (centres unmarked) [Compound 801351] | 100 to 1000 | 100 to 1000 | – | – | –
CCC1(c2cccc(N(C)C(=O)COC)c2)C2=C(CC(C)(C)CC2=O)Nc2n[nH]cc21 (centres unmarked) | – | – | – | – | IC50 [1, 9]: 100 to 1000 nM; IC50 [2, 10]: < 100 nM
CCc1cc(-c2cccc(C3(CC)C4=C(CC(C)(C)CC4=O)Nc4n[nH]cc43)c2)ccn1 (centres unmarked) | – | – | – | – | IC50 [1, 6]: 100 to 1000 nM; IC50 [2, 8]: < 100 nM
CC[C@]1(c2cccc(-c3cc(C)nn3C)c2)C2=C(Nc3n[nH]cc31)[C@@H](F)C(C)(C)CC2=O | – | – | – | – | IC50 [1, 6]: > 5000 nM; IC50 [2, 8]: 100 to 1000 nM
CC[C@]1(c2cccc(Br)c2)C2=C(C[C@@H](C)CC2=O)Nc2n[nH]c(C(F)(F)F)c21 | < 100 | < 100 | – | – | –
CCC1(c2cccc(-c3cc(C)ncc3F)c2)C2=C(CC(C)(C)NC2=O)Nc2n[nH]c(C(F)(F)F)c21 (centres unmarked) | < 100 | < 100 | – | – | –
CC[C@@]1(c2cccc(-c3cc[n+]([O-])c(C)c3)c2)C2=C(CC(C)(C)CC2=O)Nc2n[nH]cc21 | – | – | – | – | IC50 [1, 6]: 1000 to 5000 nM; IC50 [2, 8]: 100 to 1000 nM
CC[C@@]1(c2cccc(-c3cn(C)nc3C)c2)C2=C(CC(C)(C)NC2=O)Nc2n[nH]c(C)c21 | – | – | 100 to 1000 | < 100 | IC50 [1, 11]: < 100 nM; IC50 [2, 12]: < 100 nM

Second part, led by results:

IC50 [1, 3] [nM] | IC50 [2, 4] [nM] | IC50 [1, 5] [nM] | IC50 [2, 7] [nM] | SMILES | also measured
< 100 | < 100 | – | – | CCC1(c2cccc(N3CCCC3)c2)C2=C(CC(C)(C)CC2=O)Nc2n[nH]c(C)c21 (centres unmarked) [Compound 883874] | –
– | – | < 100 | < 100 | CC[C@]1(c2cccc(-c3ccncc3)c2)C2=C(CC(C)(C)CC2=O)Nc2n[nH]c(C(F)(F)F)c21 | IC50 [1, 9]: < 100 nM; IC50 [2, 10]: < 100 nM
100 to 1000 | < 100 | > 5000 | 100 to 1000 | CC[C@@]1(c2cccc(-c3ccnc(C)c3)c2)C2=C(CC(C)(C)CC2=O)Nc2n[nH]cc21 | –
– | – | 1000 to 5000 | 100 to 1000 | CC[C@@]1(c2cccc([C@@H](C)c3ncccn3)c2)C2=C(CC(C)(C)CC2=O)Nc2n[nH]cc21 | IC50 [1, 6]: < 100 nM; IC50 [2, 8]: < 100 nM
– | – | 100 to 1000 | 100 to 1000 | CC[C@@]1(c2cccc(-c3ccn(C)n3)c2)C2=C(CC(C)(C)CC2=O)Nc2n[nH]c(C)c21 | IC50 [1, 9]: < 100 nM; IC50 [2, 10]: < 100 nM
– | – | 100 to 1000 | < 100 | CC[C@]1(c2cccc(N(C)c3ncccn3)c2)C2=C(CC(C)(C)CC2=O)Nc2n[nH]cc21 | IC50 [1, 9]: < 100 nM; IC50 [2, 10]: < 100 nM
> 5000 | 1000 to 5000 | – | – | CC[C@@]1(c2cccc(-c3ccnc(N4CCCCC4)c3)c2)C2=C(CC(C)(C)NC2=O)Nc2n[nH]cc21 | –
< 100 | < 100 | 100 to 1000 | < 100 | CC[C@]1(c2cccc(-c3ccncc3C)c2)C2=C(CC3(CCCC3)NC2=O)Nc2n[nH]cc21 | –
